Test system: sEH
Details: AEPU-treated ApoE -/- mice, percent of control, p<0.05

CCOCCOCCOCCCCCNC(=O)NC12CC3CC(CC(C3)C1)C2 [AEPU, 1-adamantan-3-(5-(2-(2-ethylethoxy)ethoxy)pentyl)urea]
Plasma 14,15-EET and 9,10-EpOME levels versus control: significantly higher

Source: PMC2637359 (Journal of cardiovascular pharmacology, 2008)
